Reference: US20260108527A1, “POLO LIKE KINASE 4 INHIBITORS” (ORIC Pharmaceuticals, Inc., priority 2022, published 2026)

By UniProt entry, the sequences of proteins in these tests, tags left out.
UniProt O00444, whole entry: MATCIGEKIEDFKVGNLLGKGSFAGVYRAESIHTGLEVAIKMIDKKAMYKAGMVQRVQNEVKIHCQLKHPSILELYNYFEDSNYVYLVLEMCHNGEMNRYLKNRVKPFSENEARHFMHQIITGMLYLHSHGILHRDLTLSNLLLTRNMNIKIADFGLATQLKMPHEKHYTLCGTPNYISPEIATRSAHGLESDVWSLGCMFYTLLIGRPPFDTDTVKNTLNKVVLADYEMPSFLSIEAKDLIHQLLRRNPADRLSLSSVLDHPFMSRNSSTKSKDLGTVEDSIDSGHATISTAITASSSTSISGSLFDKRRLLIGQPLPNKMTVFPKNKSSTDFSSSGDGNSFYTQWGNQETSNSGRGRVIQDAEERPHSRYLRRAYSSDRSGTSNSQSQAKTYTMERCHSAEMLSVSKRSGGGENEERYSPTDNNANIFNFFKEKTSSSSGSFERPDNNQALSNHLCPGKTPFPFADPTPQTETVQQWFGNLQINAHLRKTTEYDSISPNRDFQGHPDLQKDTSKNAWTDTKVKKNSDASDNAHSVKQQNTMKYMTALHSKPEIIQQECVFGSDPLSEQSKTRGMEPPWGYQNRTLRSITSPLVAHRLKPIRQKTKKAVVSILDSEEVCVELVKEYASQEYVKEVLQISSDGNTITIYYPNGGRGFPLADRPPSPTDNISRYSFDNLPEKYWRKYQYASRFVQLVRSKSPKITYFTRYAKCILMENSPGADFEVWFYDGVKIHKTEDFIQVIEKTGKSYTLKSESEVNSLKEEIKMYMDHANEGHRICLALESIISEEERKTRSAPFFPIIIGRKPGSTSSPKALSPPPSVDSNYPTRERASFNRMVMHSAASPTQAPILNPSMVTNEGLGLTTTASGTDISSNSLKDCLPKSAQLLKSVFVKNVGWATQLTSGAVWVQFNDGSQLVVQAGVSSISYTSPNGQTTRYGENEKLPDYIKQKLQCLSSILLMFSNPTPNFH
UniProt O14965, whole entry: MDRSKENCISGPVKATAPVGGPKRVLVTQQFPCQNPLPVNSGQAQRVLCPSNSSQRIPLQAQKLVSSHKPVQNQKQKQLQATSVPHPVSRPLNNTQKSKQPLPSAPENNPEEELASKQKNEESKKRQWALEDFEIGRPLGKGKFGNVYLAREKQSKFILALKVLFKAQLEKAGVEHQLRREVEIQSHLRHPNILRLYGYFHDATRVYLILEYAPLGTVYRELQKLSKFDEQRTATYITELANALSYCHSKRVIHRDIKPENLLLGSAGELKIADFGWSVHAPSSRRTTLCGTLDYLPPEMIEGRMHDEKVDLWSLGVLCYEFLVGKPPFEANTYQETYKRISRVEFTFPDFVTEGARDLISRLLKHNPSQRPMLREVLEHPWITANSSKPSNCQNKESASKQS
UniProt Q96GD4, whole entry: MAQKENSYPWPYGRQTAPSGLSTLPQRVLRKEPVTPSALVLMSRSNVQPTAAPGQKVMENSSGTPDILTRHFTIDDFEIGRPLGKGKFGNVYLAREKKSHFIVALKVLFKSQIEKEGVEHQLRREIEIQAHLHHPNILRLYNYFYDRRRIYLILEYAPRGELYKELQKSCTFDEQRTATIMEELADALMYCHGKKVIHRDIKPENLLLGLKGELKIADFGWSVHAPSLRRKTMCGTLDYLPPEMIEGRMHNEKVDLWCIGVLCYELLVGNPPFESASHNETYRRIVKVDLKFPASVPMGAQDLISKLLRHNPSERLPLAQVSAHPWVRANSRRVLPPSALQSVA

How the values were obtained:
human recombinant PLK4 = human recombinant PLK4 (Homo sapiens, UniProt O00444); test: PLK4 Biochemical Assay (ADP-Glo); details: read-out: PLK4 IC50; 0.5 nM PLK4, 8.0 μM ATP, 4.7 μM MBP, 6 hours at RT
CHP134 = CHP134 CellTiter-Glo (CTG) Assay; details: read-out: CTG IC50; viable cells by CellTiter-Glo after 5 days
[1] = biological target: human recombinant Aurora A (Homo sapiens, UniProt O14965); test: Aurora A Kinase Biochemical Assay (ADP-Glo); details: selectivity ratio; Aurora A 2.5 nM, 20 μM ATP
[2] = biological target: human recombinant Aurora B (Homo sapiens, UniProt Q96GD4); test: Aurora B Kinase Biochemical Assay (ADP-Glo); details: selectivity ratio; Aurora B 10 nM, 114 μM ATP

[2H]C([2H])([2H])Oc1ccc2c(c1)[C@]1(C[C@H]1c1ccc3c(Nc4nc(C)ncc4OCC)n[nH]c3c1)C(=O)N2
IC50 (human recombinant PLK4): 1.89 nM
IC50 (CHP134): 411 nM
[Aurora A IC50 (nM)]/[PLK4 IC50 (nM)] [1]: 4818.3738
[Aurora B IC50 (nM)]/[PLK4 IC50 (nM)] [2]: 341.1826
